Drawing on ChEMBL document CHEMBL1128159, “Synthesis and evaluation of diacylhydrazines as inhibitors of the interleukin-1 converting enzyme (ICE)” (Bioorg Med Chem Lett, 1995), this text covers second-order inactivation rate constant (kobs/[I]) for one molecule.

The assay concerns the target T1, Caspase-1 (Homo sapiens) (UniProt P29466).
T1 sequence (whole entry): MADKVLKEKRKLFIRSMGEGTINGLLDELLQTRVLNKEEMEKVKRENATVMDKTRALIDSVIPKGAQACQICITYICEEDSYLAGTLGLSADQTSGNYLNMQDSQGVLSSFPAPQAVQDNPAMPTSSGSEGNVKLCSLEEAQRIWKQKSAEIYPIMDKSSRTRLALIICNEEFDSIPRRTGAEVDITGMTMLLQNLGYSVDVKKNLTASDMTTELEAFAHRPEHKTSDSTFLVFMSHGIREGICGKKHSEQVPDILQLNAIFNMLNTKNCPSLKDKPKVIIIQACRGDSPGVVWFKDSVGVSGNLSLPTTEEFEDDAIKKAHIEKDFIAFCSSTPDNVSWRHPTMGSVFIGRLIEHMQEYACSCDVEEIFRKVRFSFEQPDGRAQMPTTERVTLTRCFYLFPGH
As to the kind of experiment: Compound was tested for inhibition of IL-1 beta converting enzyme by measuring second order rate of inactivation.

Consider `CC(C)[C@H](NC(=O)OCc1ccccc1)C(=O)N[C@@H](C)C(=O)NC(CC(=O)O)C(=O)COc1cc(C(F)(F)F)nn1-c1ccccc1` (stereo partly specified), for which the second-order inactivation rate constant (kobs/[I]) amounted to 280000 M⁻¹ s⁻¹.
